# According to patent publication US20250057819A1, “DRUG COMBINATIONS FOR INHIBITING CORONAVIRUS REPLICATION” (priority 2021, published 2025):
# Experiment: Cell viability assay (MTT) in HRT-18 cells
# Conditions: human, CC50 (μM)
# [1] = drug 2 alone (fast synergy screening table)
# [2] = drug alone, HRT-18 cells, 48 h treatment, MTT
smiles,measurement,setting,value
C[C@H]1O[C@@H](O[C@H]2[C@@H](O)C[C@H](O[C@H]3[C@@H](O)C[C@H](O[C@H]4CC[C@@]5(C)[C@H](CC[C@@H]6[C@@H]5C[C@@H](O)[C@]5(C)[C@@H](C7=CC(=O)OC7)CC[C@]65O)C4)O[C@@H]3C)O[C@@H]2C)C[C@H](O)[C@@H]1O [Digoxin],CC50 at 48 h,[1],0.075 µM
same,CC50 at 48 h,[2],0.075 µM
Oc1c(Cl)cc(Cl)c(Cl)c1Cc1c(O)c(Cl)cc(Cl)c1Cl [Hexachlorophene],CC50 at 48 h,[1],> 10 µM
same,CC50 at 48 h,[2],> 10 µM
